Target: T1, GST-CIB1 : F-αIIb peptide (Homo sapiens, UniProt Q99828)
T1 construct: made in house; host or cells: BL-21 plus RIL cells (E. coli)
T1 sequence (Q99828 1-191): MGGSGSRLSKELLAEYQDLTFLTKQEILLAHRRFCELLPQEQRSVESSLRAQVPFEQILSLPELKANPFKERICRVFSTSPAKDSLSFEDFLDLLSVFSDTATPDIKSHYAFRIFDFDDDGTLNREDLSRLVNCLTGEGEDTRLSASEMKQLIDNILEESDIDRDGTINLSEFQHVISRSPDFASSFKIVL
Assay: FP assay in the presence of glutathione (GSH), thiol reactivity
Format: binding

In the case of `O=C1C(I)=CC(=C(c2cc(I)c([O-])c(I)c2)c2ccccc2C(=O)[O-])C=C1I.[Na+].[Na+]` [NCGC00161636-02], the “GSH/CIB1 IC50 ratio” value is reported as 1.8.

Source: PMC11249646, “Small-Molecule Disruptors of the Interaction between Calcium- and Integrin-Binding Protein 1 and Integrin αIIbβ3 as Novel Antiplatelet Agents” (ACS Pharmacology & Translational Science, 2024)
